Experimental data from US20250367182A1, “METHOD FOR INDUCING IN-SITU REGENERATION OF MAMMAL AND USE THEREOF” (INSTITUTE OF ZOOLOGY, CHINESE ACADEMY OF SCIENCES, priority 2022, published 2025).

Each substance was assayed on 2 mm diameter mouse ear hole (assay: 2 mm ear hole trauma mouse model (ear hole closure)). Details: 10-20 mg/kg, administered as CHX, measured 21 days after damage, n≥8.
Format: in vivo, C57BL/6 mice

Row | Substance | healing of 2 mm ear holes by ferroptosis / autophagy inhibitors
1 | 3BDO | neither inhibitors of ferroptosis nor autophagy could promote the healing of the ear hole like CHX
2 | UAMC-3203 | neither inhibitors of ferroptosis nor autophagy could promote the healing of the ear hole like CHX
3 | Autophinib | neither inhibitors of ferroptosis nor autophagy could promote the healing of the ear hole like CHX
